Measurements: PubChem BioAssay AID488965 (Broad Institute, 2010)
This is a selection; strong and weak results do not stand in their true shares. Calls of active or inactive are those of the source. Rule as the data show it: active = inhibition above about 30% (passing the limit was not always enough); inconclusive = no clear call, values can overlap the other calls.

test system: PvdQ acylase [Pseudomonas aeruginosa LESB58]; test: P. aeruginosa PvdQ acylase inhibitors, primary screen, biochemical, fluorescence, plate reader and imaging, single point (AID 488965); conditions: purified PvdQ acylase, at 10 µM, stronger effect = higher value;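 also: 0% = vehicle neutral wells and 100% = reference inhibitor wells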

Row | Compound | inhibition
1 | CCC(=O)N(c1ccccc1)C1(COC)CCN(CCc2cccs2)CC1 | inactive: 3.87%
2 | CCC(=O)N(c1ccccc1)C1(COC)CCN(CCn2nnn(CC)c2=O)CC1 | inactive: -13.2%
